This is a selection; strong and weak results do not stand in their true shares. Inconclusive results are not listed. The source made the active and inactive calls. Unless noted, calls come from the whole dose curve; as a rule, active = well fitted curve in the direction sought with a large enough effect; inconclusive = small, poorly fitted or top-dose-only effect, or another doubt; inactive = no such curve, though single readings can be large; an effect the other way counts as inactive or inconclusive.
How the values were obtained:
[1] = biological target: Chromobox protein homolog 1 (Homo sapiens) (UniProt P83916); test: qHTS Validation Assay for Inhibitors of HP1-beta Chromodomain Interactions with Methylated Histone Tails (AID 488953); conditions: HP1-beta chromodomain / methylated histone peptide binding assay; at 114 µM (top of the series);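 note: loss of AlphaScreen luminescence from HP1-beta binding biotinylated H3K9me3 peptide; % is set by controls: 0 for no effect and ±100 for the full control effect; nearly all actives have a fitted effect of over 50% in size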
[2] = biological target: Methanococcus maripaludis chaperonin (MmCpn) (UniProt Q6LX38); test: High-Throughput Screening for Modulators of Cytosolic Chaperonin Activity: MmCpn Primary Screen (AID 488978); conditions: MmCpn chaperonin refolding activity, biochemical qHTS; at 76.9 µM (top of the series);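 note: 50 nM MmCpn enzyme hydrolysing 30 µM ATP at 37 °C; 0% is about no effect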
Outline: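 ADP formation read by HTRF Transcreener, 665/590 nm emission after 320 nm excitation. Enzyme: archaeal chaperonin at 50 nM final; substrate ATP 30 uM final; 10 min, 37C, after 5 min compound preincubation at RT.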

By UniProt entry, the sequences of proteins in these tests, tags left out. Where a name states a change or a piece, a line headed by the entry shows the natural chain unless it says otherwise.
UniProt P83916, whole entry, looked up: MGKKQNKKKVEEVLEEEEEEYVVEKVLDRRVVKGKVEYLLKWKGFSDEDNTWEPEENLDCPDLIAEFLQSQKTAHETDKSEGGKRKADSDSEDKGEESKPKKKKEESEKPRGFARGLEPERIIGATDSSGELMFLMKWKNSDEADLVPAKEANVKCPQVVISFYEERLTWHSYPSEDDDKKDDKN
UniProt Q6LX38: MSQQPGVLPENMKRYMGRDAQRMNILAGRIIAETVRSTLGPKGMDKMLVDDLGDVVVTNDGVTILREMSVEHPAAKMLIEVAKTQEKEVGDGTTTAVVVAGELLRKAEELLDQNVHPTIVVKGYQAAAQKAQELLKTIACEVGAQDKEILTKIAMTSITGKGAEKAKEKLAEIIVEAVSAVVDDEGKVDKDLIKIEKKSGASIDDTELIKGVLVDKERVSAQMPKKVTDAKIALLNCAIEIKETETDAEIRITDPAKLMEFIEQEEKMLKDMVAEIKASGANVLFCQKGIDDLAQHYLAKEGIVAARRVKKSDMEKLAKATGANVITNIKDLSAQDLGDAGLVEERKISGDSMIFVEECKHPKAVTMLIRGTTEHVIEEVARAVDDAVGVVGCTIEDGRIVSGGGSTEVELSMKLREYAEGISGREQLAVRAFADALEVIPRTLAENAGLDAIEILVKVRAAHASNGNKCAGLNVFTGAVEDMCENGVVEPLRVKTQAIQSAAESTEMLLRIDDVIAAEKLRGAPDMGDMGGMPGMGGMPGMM
UniProt P16473, whole entry, looked up: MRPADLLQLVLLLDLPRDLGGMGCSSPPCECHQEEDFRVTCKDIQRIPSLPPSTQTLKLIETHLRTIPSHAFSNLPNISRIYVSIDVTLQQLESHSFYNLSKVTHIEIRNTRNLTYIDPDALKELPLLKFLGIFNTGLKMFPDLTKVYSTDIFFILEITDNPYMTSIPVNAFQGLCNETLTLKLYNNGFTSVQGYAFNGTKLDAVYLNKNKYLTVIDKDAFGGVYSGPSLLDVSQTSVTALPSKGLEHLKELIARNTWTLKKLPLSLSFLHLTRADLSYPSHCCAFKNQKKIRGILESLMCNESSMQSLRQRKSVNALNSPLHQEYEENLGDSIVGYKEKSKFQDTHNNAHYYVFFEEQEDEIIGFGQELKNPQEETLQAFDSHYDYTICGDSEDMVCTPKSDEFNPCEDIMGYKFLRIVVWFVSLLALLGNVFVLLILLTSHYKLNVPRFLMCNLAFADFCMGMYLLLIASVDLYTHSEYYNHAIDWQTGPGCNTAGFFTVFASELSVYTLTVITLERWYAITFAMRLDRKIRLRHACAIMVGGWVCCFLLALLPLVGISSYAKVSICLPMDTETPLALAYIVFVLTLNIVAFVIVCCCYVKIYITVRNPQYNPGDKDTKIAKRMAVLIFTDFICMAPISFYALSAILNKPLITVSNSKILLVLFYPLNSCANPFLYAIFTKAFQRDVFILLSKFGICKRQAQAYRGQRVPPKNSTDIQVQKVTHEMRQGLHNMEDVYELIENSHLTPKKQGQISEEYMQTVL
UniProt P21728, whole entry, looked up: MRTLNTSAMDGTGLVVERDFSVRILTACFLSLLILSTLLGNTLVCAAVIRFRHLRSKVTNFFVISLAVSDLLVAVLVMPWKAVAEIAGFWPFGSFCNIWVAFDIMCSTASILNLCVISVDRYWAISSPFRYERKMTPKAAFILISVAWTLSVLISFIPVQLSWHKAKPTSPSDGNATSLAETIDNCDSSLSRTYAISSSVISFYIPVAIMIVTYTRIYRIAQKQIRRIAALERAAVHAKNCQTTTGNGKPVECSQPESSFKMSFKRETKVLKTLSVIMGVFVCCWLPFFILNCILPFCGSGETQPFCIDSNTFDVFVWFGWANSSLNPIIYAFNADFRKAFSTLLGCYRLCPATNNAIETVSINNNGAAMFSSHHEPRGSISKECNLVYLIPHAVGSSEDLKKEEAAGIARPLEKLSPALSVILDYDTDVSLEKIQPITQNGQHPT
UniProt Q96QE3: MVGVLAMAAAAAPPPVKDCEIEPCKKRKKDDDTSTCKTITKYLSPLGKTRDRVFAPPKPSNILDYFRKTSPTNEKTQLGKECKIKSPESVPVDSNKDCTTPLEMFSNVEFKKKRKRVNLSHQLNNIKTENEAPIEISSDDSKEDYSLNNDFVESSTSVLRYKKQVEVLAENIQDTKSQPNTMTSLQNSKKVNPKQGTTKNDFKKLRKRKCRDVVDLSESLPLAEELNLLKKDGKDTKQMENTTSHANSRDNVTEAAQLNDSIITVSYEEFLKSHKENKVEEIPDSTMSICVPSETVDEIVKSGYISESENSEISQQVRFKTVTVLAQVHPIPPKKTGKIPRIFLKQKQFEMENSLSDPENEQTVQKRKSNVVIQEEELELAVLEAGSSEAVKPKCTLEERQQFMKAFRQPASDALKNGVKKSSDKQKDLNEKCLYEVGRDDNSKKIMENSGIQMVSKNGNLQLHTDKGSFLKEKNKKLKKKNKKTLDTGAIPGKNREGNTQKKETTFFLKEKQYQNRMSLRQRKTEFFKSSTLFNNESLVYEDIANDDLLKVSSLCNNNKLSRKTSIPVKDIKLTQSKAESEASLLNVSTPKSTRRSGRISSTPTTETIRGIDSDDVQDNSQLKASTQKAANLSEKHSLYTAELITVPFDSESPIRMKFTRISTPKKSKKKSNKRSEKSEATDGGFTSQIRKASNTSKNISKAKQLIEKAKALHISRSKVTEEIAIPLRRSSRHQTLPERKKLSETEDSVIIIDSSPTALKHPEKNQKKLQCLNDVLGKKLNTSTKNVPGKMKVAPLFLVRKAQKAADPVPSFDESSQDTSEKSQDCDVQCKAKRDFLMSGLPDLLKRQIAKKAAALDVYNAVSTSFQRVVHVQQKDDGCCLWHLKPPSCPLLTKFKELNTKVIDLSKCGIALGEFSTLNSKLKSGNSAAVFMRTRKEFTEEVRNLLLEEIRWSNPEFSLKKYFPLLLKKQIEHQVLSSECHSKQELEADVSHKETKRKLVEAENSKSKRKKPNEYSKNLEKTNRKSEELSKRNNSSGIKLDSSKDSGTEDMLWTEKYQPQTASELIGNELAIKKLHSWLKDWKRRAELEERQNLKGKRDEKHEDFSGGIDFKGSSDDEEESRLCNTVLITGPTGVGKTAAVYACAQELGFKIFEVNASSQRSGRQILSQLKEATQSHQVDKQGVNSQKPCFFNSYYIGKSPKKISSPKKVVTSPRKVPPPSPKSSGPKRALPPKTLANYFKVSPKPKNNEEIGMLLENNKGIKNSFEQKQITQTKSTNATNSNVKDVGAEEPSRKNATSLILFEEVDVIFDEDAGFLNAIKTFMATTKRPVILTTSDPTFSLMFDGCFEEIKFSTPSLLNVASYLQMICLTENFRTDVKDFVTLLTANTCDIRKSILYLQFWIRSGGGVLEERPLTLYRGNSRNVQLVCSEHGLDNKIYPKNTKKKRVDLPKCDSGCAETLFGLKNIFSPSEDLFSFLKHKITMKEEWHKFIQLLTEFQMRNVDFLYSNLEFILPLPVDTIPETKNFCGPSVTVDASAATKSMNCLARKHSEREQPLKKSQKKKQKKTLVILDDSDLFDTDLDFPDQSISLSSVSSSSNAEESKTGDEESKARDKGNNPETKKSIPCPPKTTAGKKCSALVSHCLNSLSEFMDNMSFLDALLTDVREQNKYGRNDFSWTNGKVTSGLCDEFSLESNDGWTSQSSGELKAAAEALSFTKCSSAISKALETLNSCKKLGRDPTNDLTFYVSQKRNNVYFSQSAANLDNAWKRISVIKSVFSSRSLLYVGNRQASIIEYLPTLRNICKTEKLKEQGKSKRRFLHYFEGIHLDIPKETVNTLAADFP
UniProt P34981: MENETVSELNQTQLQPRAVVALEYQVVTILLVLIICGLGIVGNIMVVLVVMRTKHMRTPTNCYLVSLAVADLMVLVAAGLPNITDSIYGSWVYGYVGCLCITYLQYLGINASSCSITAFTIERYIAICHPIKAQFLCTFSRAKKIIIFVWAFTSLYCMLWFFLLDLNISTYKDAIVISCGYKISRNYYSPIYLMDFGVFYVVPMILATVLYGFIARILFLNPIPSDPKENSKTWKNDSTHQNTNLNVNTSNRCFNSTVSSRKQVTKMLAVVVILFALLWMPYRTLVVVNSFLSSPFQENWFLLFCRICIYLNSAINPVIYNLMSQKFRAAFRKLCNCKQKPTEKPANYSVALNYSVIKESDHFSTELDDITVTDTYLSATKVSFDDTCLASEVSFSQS
UniProt P51570: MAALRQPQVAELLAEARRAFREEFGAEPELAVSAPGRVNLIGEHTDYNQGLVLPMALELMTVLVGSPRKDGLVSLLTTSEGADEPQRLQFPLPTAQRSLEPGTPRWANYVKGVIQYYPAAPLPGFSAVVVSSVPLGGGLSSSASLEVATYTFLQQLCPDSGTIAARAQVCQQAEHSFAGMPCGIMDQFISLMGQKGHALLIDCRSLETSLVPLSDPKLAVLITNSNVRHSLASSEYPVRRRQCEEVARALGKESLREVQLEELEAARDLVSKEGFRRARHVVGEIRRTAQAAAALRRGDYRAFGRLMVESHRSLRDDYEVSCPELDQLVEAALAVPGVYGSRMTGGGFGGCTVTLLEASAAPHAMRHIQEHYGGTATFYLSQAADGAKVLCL
UniProt Q13526, whole entry, looked up: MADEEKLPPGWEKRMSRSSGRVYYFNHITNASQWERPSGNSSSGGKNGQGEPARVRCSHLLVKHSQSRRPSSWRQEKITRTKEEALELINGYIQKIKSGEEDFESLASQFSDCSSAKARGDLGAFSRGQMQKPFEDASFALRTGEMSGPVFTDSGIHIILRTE
UniProt O94782: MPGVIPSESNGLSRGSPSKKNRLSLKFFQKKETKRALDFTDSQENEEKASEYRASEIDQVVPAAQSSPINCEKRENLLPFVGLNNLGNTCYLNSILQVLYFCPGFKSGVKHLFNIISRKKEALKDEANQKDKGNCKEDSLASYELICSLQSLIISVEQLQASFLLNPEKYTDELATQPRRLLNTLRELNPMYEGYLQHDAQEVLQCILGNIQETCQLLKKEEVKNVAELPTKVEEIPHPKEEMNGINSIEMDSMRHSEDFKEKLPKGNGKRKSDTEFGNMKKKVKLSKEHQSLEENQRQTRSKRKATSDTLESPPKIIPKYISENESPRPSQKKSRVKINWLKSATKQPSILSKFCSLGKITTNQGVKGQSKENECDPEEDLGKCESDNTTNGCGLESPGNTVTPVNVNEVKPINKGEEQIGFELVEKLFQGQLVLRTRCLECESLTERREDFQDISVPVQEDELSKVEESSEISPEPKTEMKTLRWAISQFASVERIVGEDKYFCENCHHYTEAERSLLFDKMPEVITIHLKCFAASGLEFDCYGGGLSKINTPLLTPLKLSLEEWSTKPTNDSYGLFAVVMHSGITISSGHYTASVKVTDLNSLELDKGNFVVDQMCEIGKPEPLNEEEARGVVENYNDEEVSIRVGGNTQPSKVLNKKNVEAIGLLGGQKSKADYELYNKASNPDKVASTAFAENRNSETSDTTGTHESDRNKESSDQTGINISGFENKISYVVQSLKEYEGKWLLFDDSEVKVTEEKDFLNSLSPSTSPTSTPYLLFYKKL

[3] = biological target: Thyrotropin receptor (Homo sapiens) (UniProt P16473); test: qHTS Assay for Antagonists of the Thyroid Stimulating Hormone Receptor (AID 488980); conditions: TSHR-expressing cells, cAMP antagonist read-out; at 57.5 µM (top of the series); note: 0% is about no effect
Outline: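 TSHR-HEK293 cells; 70 uM RO 20-1724 PDE inhibitor; compound + EC80 TSH (4 nM final); anti-cAMP cryptate antibody/cAMP-d2 in lysis buffer, 30 min RT; HTRF 665/620 nm read.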

[4] = biological target: D(1A) dopamine receptor (Homo sapiens) (UniProt P21728); test: HTS Assay for Allosteric Agonists of the Human D1 Dopamine Receptor: Primary Screen for Agonists (AID 488981); conditions: D1 receptor-expressing cells, agonist cAMP readout; at 41.8 µM (top of the series); note: 0% is about no effect
Outline: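 Calcium flux in an inducible, force-coupled HEK293 Trex D1 line (overnight at 30 C): agonist mode is the 180 s kinetic read after compound; potentiator mode is the following 180 s read after dopamine at EC20.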

[5] = biological target: D(1A) dopamine receptor (Homo sapiens) (UniProt P21728); test: HTS Assay for Allosteric Agonists of the Human D1 Dopamine Receptor: Primary Screen for Antagonists (AID 488983); conditions: D1 receptor cell assay, antagonist mode, qHTS titration; at 41.8 µM (top of the series);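 note: calcium flux response to an EC80 dopamine challenge measured with no-wash dye; % is set by controls: 0 for no effect and ±100 for the full control effect; nearly all actives have a fitted effect of over 65% in size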
[6] = Validation screen for small molecules that induce genotoxicity in human embryonic kidney (HEK293T) cells expressing luciferase-tagged ELG1 (AID 493106); conditions: luminescence; at 46.1 µM (top of the series); note: 0% is about no effect
Outline: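 HEK293T cells expressing luciferase-tagged ELG1, 2,000 cells/well, exposed to compound 16 hr at 37 °C, 5% CO2. Luciferase read after ONE-Glo, 30 min at room temperature; increased signal indicates genetic stress.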

[7] = biological target: ATPase family AAA domain-containing protein 5 (Homo sapiens) (UniProt Q96QE3); test: Validation screen for small molecules that inhibit ELG1-dependent DNA repair in human embryonic kidney (HEK293T) cells expressing luciferase-tagged ELG1 (AID 493107); conditions: HEK293T ELG1-luciferase level, luminescence, 5-fluorouridine co-treatment, 16 h; at 46.1 µM (top of the series);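 note: cells co-treated with the DNA-damaging agent 5-fluorouridine alongside compound; % is set by controls: 0 for no effect and ±100 for the full control effect; inhibitors lower the ELG1-luciferase luminescence signal; nearly all actives have a fitted effect of over 70% in size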
Outline: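 HEK293T cells expressing luciferase-tagged ELG1, 2,000 per well, treated with 5-fluorouridine plus compound for 16 h at 37 C. ONE-Glo luminescence after 30 min at room temperature reports ELG1 reporter level.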

[8] = biological target: Thyrotropin-releasing hormone receptor (Homo sapiens) (UniProt P34981); test: qHTS for Small Molecule Agonists and Allosteric Enhancers of Human TRH Receptor: Validation Screen for Agonists (AID 493127;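 active = calcium activation more than 3 SD above the typical response in the agonist read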; note: 0% is about no effect); conditions: TRH receptor agonist cell assay; at 2 µM; hits give high values
Outline: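 TRHR cells loaded with fluo-8 calcium dye; FDSS kinetic fluorescence (Ex 480/Em 530) read at 1 s/cycle after 23 nL compound addition. Agonist-mode calcium response recorded before the 10 nM TRH (EC20) addition.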

[9] = Nrf2 qHTS screen for inhibitors: Validation (AID 493153; active = well fitted inhibition curve with a large enough effect in the main read-out, with a control signal flat, not every such curve was filed as active;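 note: A549 cells with ARE-driven firefly luciferase reporter reporting Nrf2 activity; % of control where 0% means no effect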); conditions: A549 ARE-Fluc reporter, luciferase luminescence, 18-24 h; at 46.1 µM (top of the series)
[10] = qHTS for Inhibitors of Cell Surface uPA Generation: Validation Assay (AID 493164); conditions: mouse cells, plasminogen activation; at 38.3 µM (top of the series); note: 0% is about no effect
Outline: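 RAW 264.7 cells (4000/well) were plated overnight, then exposed for 18 h at 37 C, 5% CO2 to compounds in a 7-point 1:5 titration (2.45 nM–38.3 uM final). Intracellular ATP was read by ATP-Lite luminescence.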

[11] = biological target: Galactokinase (Homo sapiens) (UniProt P51570); test: qHTS Validation Assay for Inhibitors of Human Galactokinase (GALK) (AID 493189); conditions: purified human GALK enzyme activity, qHTS 7-point titration; at 57.5 µM (top of the series); note: 0% is about no effect
Outline: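 Luminescence from leftover ATP (Kinase-Glo Plus, 10 min) served as read-out after a 1 h room-temperature reaction of 5 nM GALK, 100 uM galactose and 35 uM ATP at pH8.0.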

[12] = Validation screen for small molecules that induce DNA re-replication in SW480 colon adenocarcinoma cells (AID 504364); conditions: DNA re-replication phenotype (high-content imaging); at 46.1 µM (top of the series); note: 0% is about no effect
Outline: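 SW480 cells (250/well) exposed 48 h at 37 C, 5% CO2, then Hoechst-stained 40 min. Nuclear DNA content imaged by fluorescence scanning (405 nm excitation, 500-530 nm emission); re-replication scored as increased nuclei with elevated intensity.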

[13] = biological target: Peptidyl-prolyl cis-trans isomerase NIMA-interacting 1 (Homo sapiens) (UniProt Q13526); test: qHTS Validation Assay to Find Inhibitors of Pin1 (AID 504536; active = well fitted inhibition curve with a large enough effect in the polarisation, with a control signal flat, not every such curve was filed as active; the % refers to the polarisation;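 note: 0% = full Pin1 enzyme wells and -100% = no-enzyme wells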); conditions: Pin1 fluorescence polarization peptide binding assay; at 57.5 µM (top of the series)
Outline: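 Fluorescence polarization competition: compounds (titration) displace HiFluor-488-labeled Pin1-1b peptide from Pin1 (0.3 uM final) in pH 7.5 HEPES buffer with DTT, 10 min at room temperature; %Activity normalized to no-enzyme wells, curves fitted.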

[14] = Inducers of the Endoplasmic Reticulum Stress Response (ERSR) in human glioma: Validation (AID 504836); conditions: human glioma cells, ER stress response reporter; at 38.3 µM (top of the series); note: 0% is about no effect
Outline: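 ERSR induction read as luciferase luminescence (Bright-Glo, 10 min at room temperature) in stably transfected human U87-MG glioma cells exposed to compounds for 16 h, using GRP78 as sensor.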

[15] = biological target: Ubiquitin carboxyl-terminal hydrolase 1 (Homo sapiens) (UniProt O94782); test: Inhibitors of USP1/UAF1: Pilot qHTS (AID 504865); conditions: purified USP1/UAF1, Ub-rhodamine cleavage fluorescence; at 114 µM (top of the series);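 note: rhodamine fluorescence freed from ubiquitin-rhodamine substrate followed over time; top concentration of the series differs between compounds; % is set by controls: 0 for no effect and ±100 for the full control effect; nearly all actives have a fitted effect of over 35% in size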

CN(C(=O)Cc1ccccc1)[C@@H]1CC[C@]2(CCCO2)C[C@H]1N1CCCC1
inactive: activity change, negative = inhibition [1] -12.6% | activity change, negative = inhibition [2] -2.38% | activity, negative = inhibition [3] -2.62% | activation [4] 2.96% | activity change, negative = inhibition [5] 15.4% | activity change, positive = ELG1 induction [6] -5.24% | activity change, negative = decrease [7] 5.81% | activation [8] 0.375% | activity change, negative = inhibition [9] 8.74% | activity change [10] 0.739% | activity change, negative = inhibition [11] 0.54% | activity (re-replication induction) [12] 10.3% | activity, negative = inhibition [13] -17.9% | activation [14] 2.68% | activity change, negative = inhibition [15] 2.29%

From PubChem BioAssay (NCATS)
